Molecular target: T1, HLA-DRB1*1501 (DR2w2β1) (Homo sapiens, UniProt P01903+P01911)
T1 construct: expressed in transfected cells
Assay: purified HLA class II binding assay, DRB1*1501 (DR2w2β1)

Sequences of proteins named here, by UniProt entry; tags and fusion partners are left off. Residues count along the entry.
UniProt P01903, 26-254: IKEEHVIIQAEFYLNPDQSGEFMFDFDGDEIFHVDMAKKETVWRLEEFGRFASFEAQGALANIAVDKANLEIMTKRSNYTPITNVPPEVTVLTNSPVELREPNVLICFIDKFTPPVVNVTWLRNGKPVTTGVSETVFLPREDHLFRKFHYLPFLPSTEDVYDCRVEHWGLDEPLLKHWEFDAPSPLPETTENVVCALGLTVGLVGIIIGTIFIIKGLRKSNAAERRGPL
UniProt P01911, 30-266: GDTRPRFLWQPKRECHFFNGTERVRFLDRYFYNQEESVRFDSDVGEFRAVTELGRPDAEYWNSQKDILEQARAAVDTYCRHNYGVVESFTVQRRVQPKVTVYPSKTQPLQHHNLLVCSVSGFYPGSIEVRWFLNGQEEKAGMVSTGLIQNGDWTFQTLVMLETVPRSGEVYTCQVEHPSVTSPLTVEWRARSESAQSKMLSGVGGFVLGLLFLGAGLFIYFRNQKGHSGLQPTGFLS

CC[C@H](C)[C@H](NC(=O)[C@H](CO)NC(=O)[C@@H]1CCCN1C(=O)[C@@H](NC(=O)[C@@H](NC(=O)[C@H](Cc1ccccc1)NC(=O)[C@H](C)NC(=O)[C@@H](NC(=O)[C@H](Cc1ccc(O)cc1)NC(=O)[C@H](CCCCN)NC(=O)[C@H](CCCNC(=N)N)NC(=O)[C@@H](N)Cc1ccccc1)[C@@H](C)O)[C@@H](C)O)[C@@H](C)CC)C(=O)N[C@@H](CC(N)=O)C(=O)N[C@@H](CC(N)=O)C(=O)N[C@@H](CCC(=O)O)C(=O)O [Peptide 27.0341]
IC50: 0.07 µM

Reference: US20050271676A1, “Inducing cellular immune responses to human immunodeficiency virus-1 using peptide and nucleic acid compositions” (Epimmune Inc., priority 1993, published 2005)
